Each structure is given as a SMILES string.

The chains behind the UniProt entries cited, without tags or fusion partners. Residues count along the entry.
UniProt Q8IFM5, 24-526: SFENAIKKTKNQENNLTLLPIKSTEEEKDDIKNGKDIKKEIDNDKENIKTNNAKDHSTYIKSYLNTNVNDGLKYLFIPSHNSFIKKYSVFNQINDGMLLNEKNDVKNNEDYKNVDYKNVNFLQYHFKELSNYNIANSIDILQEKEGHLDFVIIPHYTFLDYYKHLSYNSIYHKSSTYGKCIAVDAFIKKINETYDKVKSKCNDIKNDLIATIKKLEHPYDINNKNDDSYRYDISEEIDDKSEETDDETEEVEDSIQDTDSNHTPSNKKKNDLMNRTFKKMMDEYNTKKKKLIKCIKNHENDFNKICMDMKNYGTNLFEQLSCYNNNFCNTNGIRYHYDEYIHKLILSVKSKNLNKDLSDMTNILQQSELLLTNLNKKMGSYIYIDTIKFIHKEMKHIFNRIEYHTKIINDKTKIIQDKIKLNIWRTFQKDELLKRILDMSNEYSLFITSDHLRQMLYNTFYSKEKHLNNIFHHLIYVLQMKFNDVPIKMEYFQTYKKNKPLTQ

The target in this test is P. falciparum Rh5 (Rh5 – basigin interaction) (Plasmodium falciparum, UniProt Q8IFM5). Format: binding. As to conditions: highest concentration tested 50 μM.

In the case of `CC(C)(O)c1ccccc1CC[C@@H](SCC1(CC(=O)O)CC1)c1cccc(/C=C/c2ccc3ccc(Cl)cc3n2)c1` [Montelukast, montelukast, reference compound], the “Rh5 inhibitory activity in the AlphaScreen assay” value is on record as “did not show Rh5 inhibitory activity”.
